Assay outcomes deposited in PubChem BioAssay by Broad Institute.
Yeast UUG start: modulators of yeast start codon fidelity, primary screen, whole organism, S. cerevisiae, single point, plate reader; S. cerevisiae UUG-firefly luciferase reporter, luminescence/redox ratio; activity score, % at 18.7 µM; actives 0.13% (n = 350,000); AID 602363, 2012;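 active = replicate mean at a twofold rise or more, about +100% in these data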;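 also: firefly luciferase made from a UUG start codon reports start codon fidelity; reporter light over untreated wells divided by growth signal over untreated wells; some hits fall short of that in this replicate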
Statin myotox sup: suppressors of statin myotoxicity in C2C12 myotubes, primary screen, cell-based, single point, plate reader; C2C12 myotubes + simvastatin, ATP luminescence, 48 h; scaled: DMSO 0, geranylgeraniol control 100; rescue of ATP level, % at 7.49 µM; actives 0.78% (n = 330,000); AID 602340, 2012;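 active = mean ATP rescue above about 67%, or every replicate alone reaching that limit, limit read from the data, passing the limit was not always enough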;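 note: myotubes were challenged with 10 µM simvastatin during compound exposure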
N-glyco inh: increase of ERlucT glycosylation luciferase signal, primary screen, N-linked glycosylation inhibitor project, D54 ERlucT cells, luminescence, set 2 | D54 ERlucT glycosylation luciferase reporter, 24 h; percent of 100 nM tunicamycin response | reporter increase, % at 12.5 µM | actives 0.23% (n = 360,000) | AID 588692, 2011;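 active = mean luciferase reporter signal, scaled so untreated is 0 and the glycosylation-blocking control 100, at or above a set limit in every replicate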;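 note: luciferase carries N-glycosylation sites so blocking glycosylation raises the light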
miR122 inh: miR-122 Renilla sensor signal increase in Huh7, primary screen, miR-122 inhibitor project, cell-based, single point, plate reader; activation (reporter increase), % at 12.5 µM; AID 602342, 2012; actives 0.3% (n = 340,000); Huh7 miR-122 Renilla luciferase sensor, 48 h; neutral wells = 0, positive control = 100;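 active = mean replicate activation score at least 90 and every replicate individually at or above 90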;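 note: higher luciferase means less miR-122 activity so hits act as miR-122 inhibitors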
Cneo AK release: Cryptococcus neoformans cell lysis inducers, primary screen, AK release luminescence, single concentration; C. neoformans lysis, adenylate kinase release luminescence, 4 h; normalised: neutral wells 0, clomiphene wells 100; AID 651654, 2012; actives 0.2% (n = 360,000); lysis activity, % at 15 µM;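 active = mean lysis activity across replicates of at least 80%, whatever share of replicates individually reach that level; inactive = mean lysis activity below 80%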
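Schedule: static 4 h at 37 °C with compound, 1 h detection; system: C. neoformans cells; benchmarks: Clomiphene as positive control; buffer or medium: fresh YPD medium; measure: luminescence rise reflecting yeast cell lysis; measured by: luminescent adenylate kinase detection reagent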
Of the large screens only hits and unclear results are named; the others gave an inactive call. Most compounds without a hit are left out; they make up all but 1.2% or so of the library.

C[C@@H]1CN([C@@H](C)CO)C(=O)CCCn2cc(nn2)CO[C@H]1CN(C)Cc1ccccc1C(=O)O	none (no result: N-glyco inh)
O=C(NCC1CCCCC1)[C@@H]1N[C@@H]2c3ccc(C4=CCCC4)c(=O)n3C[C@@H]2[C@H]1CO	none (no result: N-glyco inh)
O=C(C[C@H]1CC[C@@H](NC(=O)c2ccc3c(c2)OCO3)[C@@H](CO)O1)NC1Cc2ccccc2C1	none (no result: N-glyco inh)
N#Cc1c(N2CCCC(O)C2)nc(N)c2c(N)nc3c(c12)CC(=O)N3C12CC3CC(CC(C3)C1)C2 (stereo not drawn)	N-glyco inh 41 (no result: miR122 inh)
CCN(CC)c1ccc(C2C(C(=O)OCCOC)=C(C)NC3=C2C(=O)CC(C)(C)C3)cc1 (stereo not drawn)	miR122 inh 95
CCCOC(=O)C1=C(C)NC2=C(C(=O)CC(C)(C)C2)C1c1ccc(N(C)C)cc1 (stereo not drawn)	none (no result: Statin myotox sup)
O=C(c1cccc(Cl)c1)c1nn(-c2ccccc2)c(=O)cc1C(F)(F)F	Statin myotox sup 105
CC(=O)N(C)C[C@@H]1Oc2cc(C#C[C@H](C)O)ccc2S(=O)(=O)N([C@@H](C)CO)C[C@H]1C	none (no result: N-glyco inh)
CN(C)C(=O)c1ccc(-c2ccc([C@H]3[C@H](CO)N4CCCCN(CCC(F)(F)F)C[C@@H]34)cc2)cc1	Cneo AK release 96 (no result: N-glyco inh)
O=C([C@@H]1[C@@H](CO)[C@@H]2Cn3c(ccc(-c4ccncc4)c3=O)[C@@H]2N1Cc1cocn1)N1CCCCC1	none (no result: Yeast UUG start, N-glyco inh, miR122 inh)
COc1cc(NC(=O)CN(C)S(=O)(=O)c2ccc3c(c2)CC(C)N3C(C)=O)cc(OC)c1OC (stereo not drawn)	Statin myotox sup 109
CC(=O)N1c2ccc(S(=O)(=O)N(C)CC(=O)NCc3ccccc3)cc2CC1C (stereo not drawn)	none
COc1ccc(NC(=O)c2cccc(S(=O)(=O)Nc3ccc(Br)cc3)c2)cn1	miR122 inh 103 (no result: Yeast UUG start, Cneo AK release)
CC(=O)Nc1cc(-c2nn(C)c(=O)c3ccccc23)ccc1N1CCOCC1	Statin myotox sup 106
Cc1ccc(S(=O)(=O)Nc2cc(-c3nn(C)c(=O)c4ccccc34)ccc2N2CCOCC2)cc1	N-glyco inh 45
Cn1nc(-c2ccc(N3CCOCC3)c(NS(=O)(=O)c3ccc(Cl)cc3)c2)c2ccccc2c1=O	none (no result: Statin myotox sup)
Cc1cccc(C)c1NS(=O)(=O)c1ccc(F)cc1	Statin myotox sup 115
O=S(=O)(Nc1ccccc1)c1ccc(F)cc1	none (no result: Statin myotox sup, miR122 inh)
O=c1[nH]nnc2c1sc1nc(N3CCOCC3)c3c(c12)CCCC3	none (no result: Statin myotox sup)
Cn1nnc2c(sc3nc(N4CCOCC4)c4c(c32)CCCC4)c1=O	Statin myotox sup 118
O=S(=O)(c1ccccc1C(F)(F)F)N1CCN(S(=O)(=O)c2ccccc2C(F)(F)F)CC1	Statin myotox sup 113
CC(=O)NCCn1c(SCc2cc(=O)n3cc(Cl)ccc3n2)nc2ccccc2c1=O	Statin myotox sup 75
NC(=O)CC[C@@H]1NC(=O)[C@H](CO)NC(=O)c2cc([N+](=O)[O-])cc(I)c2OCC[C@@H](C(N)=O)NC1=O	Statin myotox sup 106
O=c1[nH]c(N2CCOCC2)nc2c1CCCC2	Statin myotox sup 117
O=C(O)CSc1nc2c(c(=O)[nH]1)CCCC2	none (no result: Yeast UUG start, Statin myotox sup, miR122 inh, Cneo AK release)
O=c1[nH]c(N2CCN(c3ccccc3)CC2)nc2c1CCCC2	none (no result: Yeast UUG start, Statin myotox sup, Cneo AK release)
CSc1nc2c(c(=O)[nH]1)CCCC2	Statin myotox sup 119
O=C(Nc1cccc(Cl)c1)N1C[C@@H]2[C@H](c3ccccc31)[C@@H](CO)N2CC1CCOCC1	none (no result: N-glyco inh)
Cc1cc2c(c(=O)n1Cc1cccnc1)C(c1ccc(F)cc1)C(C#N)=C(N)O2 (stereo not drawn)	Statin myotox sup 110 (no result: Yeast UUG start, Cneo AK release)
Cc1cc2c(c(=O)n1CCN(C)C)C(c1ccc(Br)cc1)C(C#N)=C(N)O2 (stereo not drawn)	none (no result: miR122 inh)
Cc1cc2c(c(=O)n1CCN(C)C)C(c1ccccc1Br)C(C#N)=C(N)O2 (stereo not drawn)	Statin myotox sup 90 (no result: Yeast UUG start, Cneo AK release)
CC(C)n1cc(/C=C2\NC(=O)N(c3cccc(Cl)c3)C2=O)c2ccccc21	Statin myotox sup 115
